From ChEMBL document CHEMBL5380877, “Azulene as a biphenyl mimetic in orexin/hypocretin receptor agonists” (Bioorg Med Chem, 2023)

Chains of the proteins cited; added tags and fusions are not shown.
UniProt O43613, whole entry: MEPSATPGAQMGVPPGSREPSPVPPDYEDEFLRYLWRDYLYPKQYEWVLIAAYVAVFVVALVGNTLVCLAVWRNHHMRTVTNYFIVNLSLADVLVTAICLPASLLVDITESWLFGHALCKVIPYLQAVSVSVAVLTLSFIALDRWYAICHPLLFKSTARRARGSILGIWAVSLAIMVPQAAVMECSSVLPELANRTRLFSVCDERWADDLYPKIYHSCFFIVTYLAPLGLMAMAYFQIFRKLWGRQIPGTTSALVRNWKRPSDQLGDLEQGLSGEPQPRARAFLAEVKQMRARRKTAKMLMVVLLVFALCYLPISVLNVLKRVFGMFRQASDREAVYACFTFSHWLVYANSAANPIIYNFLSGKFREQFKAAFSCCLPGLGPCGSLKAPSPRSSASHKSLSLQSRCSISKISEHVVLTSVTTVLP

Biological target: Orexin/Hypocretin receptor type 1 (Homo sapiens, UniProt O43613)
Experiment: Agonist activity at human OX1 receptor expressed in CHO cells assessed as increase in Ca2+ accumulation level measured after 24 hrs by FLIPR calcium 4 assay
Format: functional, cell-based

EC50: 219 nM
Structure (SMILES): COc1ccc(-c2cccc(C(=O)N(C)C)c2)cc1S(=O)(=O)Nc1cccc(NCCNC(=O)c2cccc(C)c2)c1
